# Values quoted from earlier work as cited in patent US20090069429A1, “Compositions Comprising Alpha-Ketoglutarate and Their Use for Modulating Muscle Performance” (SGP & SONS AB, priority 2006, published 2009).
# Settings: stated as previously shown; cited from earlier work
compound,measurement,value
"O=C(O)CCC(=O)C(=O)O [AKG, alpha-ketoglutarate]",phosphate levels in plasma,reduce phosphate levels in plasma
